The test deals with Adenosine receptor A1 (Rattus norvegicus, UniProt P25099).

The chains behind the UniProt entries cited, without tags or fusion partners.
UniProt P25099, whole entry: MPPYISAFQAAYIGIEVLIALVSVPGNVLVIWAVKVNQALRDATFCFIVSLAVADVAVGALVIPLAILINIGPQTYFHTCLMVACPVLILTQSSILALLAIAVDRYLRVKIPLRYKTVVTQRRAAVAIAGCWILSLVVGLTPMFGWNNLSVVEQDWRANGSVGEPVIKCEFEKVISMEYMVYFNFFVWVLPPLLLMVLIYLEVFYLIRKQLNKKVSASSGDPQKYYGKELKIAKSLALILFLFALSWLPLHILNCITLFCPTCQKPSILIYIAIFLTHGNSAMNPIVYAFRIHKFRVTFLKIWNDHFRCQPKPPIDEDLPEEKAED

The compound `Nc1nc(Nc2ccccc2)nc2c1ncn2[C@@H]1O[C@H](CO)[C@H](O)C1O` (some centres not stated) [(CV 1808) 2-(6-Amino-2-phenylamino-purin-9-yl)-5-hydroxymethyl-tetrahydro-furan-3,4-diol] came in with a Ki of 910 nM. That is a sub-micromolar value.

For `CCNC(=O)[C@H]1O[C@@H](n2cnc3c(N)nc(NCCc4ccc(CCC(=O)O)cc4)nc32)[C@H](O)[C@@H]1O` [3-(4-{2-[6-Amino-9-((2R,3R,4S,5S)-5-ethylcarbamoyl-3,4-dihydroxy-tetrahydro-furan-2-yl)-9H-purin-2-ylamino]-ethyl}-phenyl)-propionic acid], the affinity, expressed as Ki, was 3080 nM.

As usually defined, the Ki is the equilibrium dissociation constant of an inhibitor or competing ligand from its target. A higher Ki goes with a looser hold on the target.

These data come from BindingDB's records for PubMed 2795469 (Ciba-Geigy, 1989).
